Assay results taken from patent US20230168255A1, “UNBLENDING OF TRANSCRIPTIONAL CONDENSATES IN HUMAN REPEAT EXPANSION DISEASE” (Max-Planck-Gesellschaft zur Förderung der Wissenschaften …, priority 2020, published 2023).

Amino acid sequences for entries named in this document (tags omitted). A change or cut given only in a name is not applied to a line headed by its entry.
UniProt P70217: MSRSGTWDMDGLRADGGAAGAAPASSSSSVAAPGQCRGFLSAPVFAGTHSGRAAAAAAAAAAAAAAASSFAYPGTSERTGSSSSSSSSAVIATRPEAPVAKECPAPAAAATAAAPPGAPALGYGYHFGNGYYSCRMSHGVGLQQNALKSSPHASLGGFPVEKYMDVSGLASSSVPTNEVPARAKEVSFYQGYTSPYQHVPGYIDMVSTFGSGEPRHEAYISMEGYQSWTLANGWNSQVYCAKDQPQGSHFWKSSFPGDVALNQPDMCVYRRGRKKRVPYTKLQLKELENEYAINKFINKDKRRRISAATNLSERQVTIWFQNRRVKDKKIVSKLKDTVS

Biological target: Hoxd13 (endogenous, wild type mouse E12.5 limb bud cells) (mouse) (UniProt P70217)
Assay: co-immunofluorescence STORM in E12.5 limb bud cells, overlap of Brd4 with Hoxd13 puncta

Brd4 (endogenous, mouse limb bud cells) (from UniProt Q9ESU6 1-1400)
fold difference in Manders co-efficient (wild type against spdh +7A Hoxd13): 1.5 fold
